These results are taken from PubChem BioAssay AID504891 (National Center for Advancing Translational Sciences (NCATS), 2011).

Sequences of proteins named here, by UniProt entry; tags and fusion partners are left off.
UniProt Q13526, whole entry: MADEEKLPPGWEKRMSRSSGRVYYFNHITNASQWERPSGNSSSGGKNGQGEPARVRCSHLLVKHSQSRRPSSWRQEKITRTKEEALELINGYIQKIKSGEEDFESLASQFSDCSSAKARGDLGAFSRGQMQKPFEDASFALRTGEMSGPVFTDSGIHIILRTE

Each structure is given as a SMILES string. Only a part is listed here, and it is no random draw. Inconclusive results are not listed. The source made the active and inactive calls. Calls follow the shape of the dose curve; as a rule, active = well fitted inhibition curve with a large enough effect in the polarisation, with a control signal flat (not every such curve was filed as active); inconclusive = small, poorly fitted or top-dose-only effect, or effect the other way, or a change in a side signal; inactive = no such curve, though single readings can be large or run the other way; the % refers to the polarisation.
% is scaled to controls: 0 for no effect and ±100 for the full control effect.

This assay concerns the target Peptidyl-prolyl cis-trans isomerase NIMA-interacting 1 (Homo sapiens) (UniProt Q13526). The assay is described as follows: qHTS Assay to Find Inhibitors of Pin1. The conditions noted are these: Pin1 FP peptide displacement, HiFluor488, 10 min; at 115 µM (top of the series).
In the case of `O=C(NCC1(N2CCCCC2)CCCCC1)c1ccc(Cl)nc1`, the activity, negative = inhibition is inactive: -2.22%.

Regarding `CCOC(=O)N1CCC(Nc2ccc(OC)cc2)CC1`, the activity, negative = inhibition was inactive: -0.634%.

For the molecule `COc1ccc(Cl)cc1C(=O)NCC1(N2CCOCC2)CCCCC1`, the activity, negative = inhibition is inactive: 2.26%. The same measure for `O=C(OC1CN2CCC1CC2)C1c2ccccc2Oc2ccccc21` (centres undefined): inactive: -12.9%; for `O=C(NCC1(N2CCCCC2)CCCCC1)c1ccc(Cl)s1`: inactive: -0.0904%; for `N#CC1(Nc2ccccc2)CCN(Cc2ccccc2)CC1`: inactive: 5.7%.

As to `O=C(NCC1(N2CCCCC2)CCCCC1)c1cccs1`, the activity, negative = inhibition was inactive: 6.81%.

`O=C(NCC1(N2CCCCC2)CCCCC1)c1ccc(=O)[nH]c1`: the activity, negative = inhibition was inactive: -1.64%. To `CC(C)(C)OC(=O)N1CCC(N(C(=O)c2ccccc2)c2ccc(F)cc2)CC1` belongs inactive: 4.5%; to `COc1ccc(C(=O)NCC2(N3CCCCC3)CCCCC2)c(OC)c1OC`, inactive: 11.7%. As to `COc1ccc(C(=O)NCC2(N3CCCCC3)CCCCC2)cc1`, the activity, negative = inhibition is inactive: 4.88%. `Cc1cccc(NC2(C#N)CCN(Cc3ccccc3)CC2)c1`: the activity, negative = inhibition was inactive: -1.39%.

In the case of `CSc1ccccc1C(=O)NCC1(N2CCCCC2)CCCCC1`, the activity, negative = inhibition is inactive: 0.528%. The same measure for `COc1cc(C(=O)NCC2(N(C)C)CCCCC2)ccc1OC(F)F`: inactive: 2.61%; for `CCOC(=O)N1CCC(Nc2cccc(C)c2)CC1`: inactive: 8.45%; for `CCOc1ccc(C)cc1CN(CCCl)CCCl`: inactive: 0.476%. Turning to `O=C1CCN(Cc2ccccc2)CC1`, the activity, negative = inhibition is inactive: 10.6%. The same measure for `O=C(NCC1(N2CCOCC2)CCCCC1)c1ccc(Cl)cc1`: inactive: -6.14%; for `CCOC(=O)N1CCC(Nc2ccc(F)cc2)CC1`: inactive: 7.04%; for `COc1ccc(NC2CCN(CCc3ccccc3)CC2)c(OC)c1`: inactive: 1.84%.

Turning to `O=C(NCC1(N2CCCCC2)CCCCC1)c1ccc(F)cc1`, the activity, negative = inhibition is inactive: 7.46%. To `CCCCOc1ccc(C(=O)NCC2(N3CCOCC3)CCCCC2)cc1` belongs inactive: -2.48%; to `COc1ccccc1C(=O)NCC1(N2CCOCC2)CCCCC1`, inactive: -6.88%. Regarding `CCN1CCC(Nc2cccc(F)c2)CC1`, the activity, negative = inhibition is inactive: -12.4%. The same measure for `Cc1ccccc1NC1(C#N)CCN(Cc2ccccc2)CC1`: inactive: 0.643%. To `Cn1c(=O)[nH]cc(N(CCCl)CCCl)c1=O` belongs inactive: -3.69%; to `CN(C)c1ccc(C(=O)NCC2(N3CCCCC3)CCCCC2)cc1`, inactive: -0.908%. Regarding `CC(C)(C)c1ccc(C(=O)NCC2(N3CCOCC3)CCCCC2)cc1`, the activity, negative = inhibition was inactive: -15.4%. In the case of `O=C(NCC1(N2CCCCC2)CCCCC1)c1ccco1`, the activity, negative = inhibition is inactive: -4.51%.
